Reference: article PMC9119080 (European journal of medicinal chemistry, 2021)

Details: human, microsomes, 1 h

O=C(O)Cc1ccccc1Nc1c(Cl)cccc1Cl [Diclofenac]
Remaining (NCF = 60min): 96.7% | Remaining (T = 60min): 0.0%
